Results from BindingDB's records for patent US8748618 (University of Virginia Patent Foundation, 2014).

Target: T1, Core-binding factor subunit beta (Homo sapiens, UniProt Q13951)
T1 sequence (Q13951 whole entry): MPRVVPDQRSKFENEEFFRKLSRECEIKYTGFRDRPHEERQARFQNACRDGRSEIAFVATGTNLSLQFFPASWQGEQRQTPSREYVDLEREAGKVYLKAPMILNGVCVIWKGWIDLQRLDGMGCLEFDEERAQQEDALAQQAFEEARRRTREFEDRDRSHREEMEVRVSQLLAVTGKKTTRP
Assay: FRET Assay
From the text: We have developed effective assays to monitor the inhibition of CBFβ-SMMHC binding to the Runt domain (as well as for CBFβ binding to the Runt domain). We fused the green fluorescent protein derivative Cerulean to the N-terminus of the Runt domain and the green fluorescent protein derivative Venus to the N-terminus of CBFβ-SMMHC (as well as to CBFβ (Gorczynski, Grembecka et al. 2007)). The ratio of the emission intensities at 525 nm and 474 nm, measured after excitation at 433 nm, was used as the readout in this assay. The dynamic range for the FRET assay was determined by adding a 30-fold excess of untagged CBFβ-SMMHC (or CBFβ in the case of CBFβ Runt domain binding) to the assay and the associated change in the FRET ratio was defined as 100% inhibition.

- IC50: 2 µM
Structure (SMILES): FC(F)(F)Oc1cc(-c2cccnc2)c2nc(-c3ccccn3)[nH]c2c1 [US8748618, AI-10-96]
